Experiments:
[1] = Clinical study: quantitation of plasma brimonidine and timolol concentrations; settings: for concentration at 1 h: human, in vivo, mean±SD plasma brimonidine concentration, 1 hour postdose
[2] = test system: patients with glaucoma or ocular hypertension; test: Clinical study: safety (adverse events, heart rate, blood pressure, visual acuity)

Structure (SMILES): Brc1c(N=C2NCCN2)ccc2nccnc12.O=C(O)C(O)C(O)C(=O)O [Brimonidine, 5-Bromo-6-(2-imidazolidinylideneamino)quinoxaline L-tartrate]
- concentration at 1 h ([1]; month 3): 0.0786 ± 0.0489 ng/mL
- concentration at 1 h ([1]; week 2): 0.081 ± 0.0638 ng/mL
- plasma brimonidine concentration in males lower than in females ([1]; month 3): 37%
- plasma brimonidine concentration in males lower than in females ([1]; week 2): 37%
- Serious adverse events reported ([2]; % of patients): 2.0%
- discontinuation of patients due to adverse events ([2]; % of patients): 14.3%
- allergic conjunctivitis, % of patients ([2]; adverse event through month 3): (3.6%)
- allergic conjunctivitis, number of patients ([2]; adverse event through month 3): 7
- asthenia, % of patients ([2]; adverse event through month 3): (3.1%)
- asthenia, number of patients ([2]; adverse event through month 3): 6
- burning sensation in eye, % of patients ([2]; adverse event through month 3): (5.6%)
- burning sensation in eye, number of patients ([2]; adverse event through month 3): 11
- conjunctival folliculosis, % of patients ([2]; adverse event through month 3): (4.6%)
- conjunctival folliculosis, number of patients ([2]; adverse event through month 3): 9
- conjunctival hyperemia, % of patients ([2]; adverse event through month 3): (11.7%)
- conjunctival hyperemia, number of patients ([2]; adverse event through month 3): 23
- epiphora, % of patients ([2]; adverse event through month 3): (4.1%)
- epiphora, number of patients ([2]; adverse event through month 3): 8
- eye pruritus, % of patients ([2]; adverse event through month 3): (6.6%)
- eye pruritus, number of patients ([2]; adverse event through month 3): 13
- foreign body sensation, % of patients ([2]; adverse event through month 3): (5.1%)
- foreign body sensation, number of patients ([2]; adverse event through month 3): 10
- infection (body as a whole), % of patients ([2]; adverse event through month 3): (3.1%)
- infection (body as a whole), number of patients ([2]; adverse event through month 3): 6
- oral dryness, % of patients ([2]; adverse event through month 3): (9.7%)
- oral dryness, number of patients ([2]; adverse event through month 3): 19
- somnolence, % of patients ([2]; adverse event through month 3): (3.6%)
- somnolence, number of patients ([2]; adverse event through month 3): 7
- stinging sensation eye, % of patients ([2]; adverse event through month 3): (2.0%)
- stinging sensation eye, number of patients ([2]; adverse event through month 3): 4
- visual disturbance, % of patients ([2]; adverse event through month 3): (5.6%)
- visual disturbance, number of patients ([2]; adverse event through month 3): 11
- death ([2]; number in group, not related to study drug): 1
- patients who experienced one or more adverse events, regardless of causality ([2]; through month 3): 61.7%
